Values quoted from earlier work, collected in US20220195481A1, “MITOCHONDRIAL RESPIROMETRY IN FROZEN SPECIMENS” (The Regents of the University of Califormia, priority 2019, published 2022).

Tested on: Complex I
Details: background statement; cited from earlier work

## [H]/N=C(/N)N/C(=N/[H])NCCc1ccccc1 [Phenformin]
  market withdrawal due to toxicity: withdrawn from the market due to Complex I toxicity resulting in lactic acidosis
